Data taken from PMC3936235.

What was measured:
[1] = biological target: T17N-CyPet (dominant inactive mutant of the Rac1 donor chain) (UniProt P63000); assay: Number and Brightness analysis; molecular brightness in each pixel, calibrated against free CyPet, YPet or EGFP as monomers; live NIH3T3 cells, transiently transfected; before and after micro-irradiation of the nucleus (DNA damage)
[2] = biological target: Rac1-CyPet (wild type donor chain of the Rac1 FLARE dual chain FRET biosensor) (UniProt P63000); assay: as above
[3] = biological target: importin-α-GFP (importin-α2, karyopherin-alpha-2, tagged to EGFP) (UniProt P52292); assay: cross Number and Brightness (cross variance) analysis; cross variance of the intensity fluctuations of the two fluorescent proteins in each pixel; live NIH3T3 cells, transiently co-transfected; before and after micro-irradiation of the nucleus (DNA damage)

Substance	stoichiometry N [1]	stoichiometry N [2]	increase in the pixels showing association upon DNA damage [3] [%]
T17N-CyPet (dominant inactive mutant of the Rac1 donor chain) (from UniProt P63000 1-192) (natural protein)	> 2		
Rac1-CyPet (wild type donor chain of the Rac1 FLARE dual chain FRET biosensor) (from UniProt P63000 1-192) (natural protein)		2	21.9
